One compound from ChEMBL document CHEMBL3593208 (Bioorg Med Chem, 2015) can be followed below.

Chains of the proteins cited; added tags and fusions are not shown. Lines headed by an entry give the natural chain unless they say otherwise; changes in a name come on top.
UniProt Q13547, whole entry: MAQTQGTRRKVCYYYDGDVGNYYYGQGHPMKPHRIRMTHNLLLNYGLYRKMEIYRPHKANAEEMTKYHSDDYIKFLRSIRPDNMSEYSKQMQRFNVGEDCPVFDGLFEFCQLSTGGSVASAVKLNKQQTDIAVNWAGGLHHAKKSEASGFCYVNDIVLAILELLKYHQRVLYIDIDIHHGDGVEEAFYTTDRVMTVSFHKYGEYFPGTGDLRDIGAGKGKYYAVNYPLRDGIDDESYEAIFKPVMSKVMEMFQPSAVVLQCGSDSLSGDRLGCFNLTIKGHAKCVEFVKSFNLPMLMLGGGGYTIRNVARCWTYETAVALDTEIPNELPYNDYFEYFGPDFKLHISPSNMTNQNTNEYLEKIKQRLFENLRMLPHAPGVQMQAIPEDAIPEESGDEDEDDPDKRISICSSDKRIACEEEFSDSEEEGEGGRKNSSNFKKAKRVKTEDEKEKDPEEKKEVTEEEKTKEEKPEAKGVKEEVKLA
UniProt O15379: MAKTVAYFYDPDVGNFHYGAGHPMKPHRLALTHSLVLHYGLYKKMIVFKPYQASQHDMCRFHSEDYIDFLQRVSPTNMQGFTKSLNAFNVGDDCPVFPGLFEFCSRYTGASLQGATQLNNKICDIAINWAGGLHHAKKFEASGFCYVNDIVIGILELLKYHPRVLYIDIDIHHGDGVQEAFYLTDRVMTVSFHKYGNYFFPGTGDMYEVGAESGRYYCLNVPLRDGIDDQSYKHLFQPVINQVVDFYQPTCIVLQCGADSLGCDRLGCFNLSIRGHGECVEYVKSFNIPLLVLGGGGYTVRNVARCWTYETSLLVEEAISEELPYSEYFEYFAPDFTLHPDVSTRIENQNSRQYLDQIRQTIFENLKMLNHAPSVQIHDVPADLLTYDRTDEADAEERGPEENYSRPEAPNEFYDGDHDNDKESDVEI
UniProt Q92769, whole entry: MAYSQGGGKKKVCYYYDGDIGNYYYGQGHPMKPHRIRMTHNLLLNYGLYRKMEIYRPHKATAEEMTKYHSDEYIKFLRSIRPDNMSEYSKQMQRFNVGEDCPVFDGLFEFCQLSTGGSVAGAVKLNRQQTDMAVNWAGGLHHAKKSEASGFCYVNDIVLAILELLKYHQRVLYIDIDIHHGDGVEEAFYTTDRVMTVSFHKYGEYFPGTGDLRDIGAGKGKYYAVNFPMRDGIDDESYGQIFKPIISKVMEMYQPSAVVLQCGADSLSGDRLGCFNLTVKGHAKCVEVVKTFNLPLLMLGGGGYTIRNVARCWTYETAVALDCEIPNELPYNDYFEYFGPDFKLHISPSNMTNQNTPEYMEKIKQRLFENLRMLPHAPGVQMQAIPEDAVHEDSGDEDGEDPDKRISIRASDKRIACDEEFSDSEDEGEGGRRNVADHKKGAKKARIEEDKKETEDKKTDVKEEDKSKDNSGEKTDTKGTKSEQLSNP

The target in one assay is Histone deacetylase 1 (Homo sapiens, UniProt Q13547). As to the kind of experiment: Inhibition of recombinant full-length HDAC1 (unknown origin) using MAZ1600/MAZ1675 as substrate assessed as release of 7 amino-4-methylcoumarin measured every 5 mins by fluorescence assay. An outline of the steps:
(§1)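 AMC release after deacetylase plus trypsin action read every 5 min. First derivative in the linear range used. Replicates normalised to DMSO controls (<0.5%). IC50 by logistic regression, unconstrained max/min.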

The target of another assay is Histone deacetylase 3 (Homo sapiens, UniProt O15379). As to the kind of experiment: Inhibition of recombinant full-length HDAC3 (unknown origin) using MAZ1600/MAZ1675 as substrate assessed as release of 7 amino-4-methylcoumarin measured every 5 mins by fluorescence assay.
The target in assay [1] is T1, Protein deacetylase HDAC6 (Homo sapiens, UniProt Q9UBN7).
T1 sequence (Q9UBN7 whole entry): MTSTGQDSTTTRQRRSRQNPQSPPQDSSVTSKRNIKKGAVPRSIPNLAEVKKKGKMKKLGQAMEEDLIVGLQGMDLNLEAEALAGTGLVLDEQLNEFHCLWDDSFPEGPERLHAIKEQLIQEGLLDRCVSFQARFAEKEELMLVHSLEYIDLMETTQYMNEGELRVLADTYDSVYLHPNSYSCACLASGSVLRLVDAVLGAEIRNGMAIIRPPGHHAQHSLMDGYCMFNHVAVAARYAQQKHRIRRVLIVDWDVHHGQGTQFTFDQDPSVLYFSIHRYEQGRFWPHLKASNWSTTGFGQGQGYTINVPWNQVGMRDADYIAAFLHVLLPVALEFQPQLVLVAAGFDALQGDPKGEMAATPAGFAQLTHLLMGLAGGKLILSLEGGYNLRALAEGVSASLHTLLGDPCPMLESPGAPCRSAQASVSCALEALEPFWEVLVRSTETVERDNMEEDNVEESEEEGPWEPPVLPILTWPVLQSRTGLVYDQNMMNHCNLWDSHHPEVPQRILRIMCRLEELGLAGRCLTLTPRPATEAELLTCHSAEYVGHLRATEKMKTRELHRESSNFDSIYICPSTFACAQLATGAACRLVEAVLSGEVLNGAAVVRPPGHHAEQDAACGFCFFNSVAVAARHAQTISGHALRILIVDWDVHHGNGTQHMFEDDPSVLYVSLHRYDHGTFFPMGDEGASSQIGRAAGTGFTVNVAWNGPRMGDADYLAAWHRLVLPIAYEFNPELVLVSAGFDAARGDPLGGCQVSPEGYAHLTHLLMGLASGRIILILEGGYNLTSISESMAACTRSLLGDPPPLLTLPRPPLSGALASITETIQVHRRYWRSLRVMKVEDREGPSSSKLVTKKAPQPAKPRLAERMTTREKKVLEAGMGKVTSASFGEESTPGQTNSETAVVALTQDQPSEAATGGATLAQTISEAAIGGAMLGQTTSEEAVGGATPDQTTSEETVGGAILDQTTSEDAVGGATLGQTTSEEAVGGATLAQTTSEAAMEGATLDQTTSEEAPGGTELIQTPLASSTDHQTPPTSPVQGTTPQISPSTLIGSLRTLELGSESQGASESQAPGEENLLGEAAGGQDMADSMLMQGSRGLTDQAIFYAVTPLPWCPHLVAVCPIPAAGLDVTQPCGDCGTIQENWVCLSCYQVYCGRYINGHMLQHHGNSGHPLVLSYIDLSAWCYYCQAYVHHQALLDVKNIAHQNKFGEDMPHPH
The assay is described as follows: Inhibition of recombinant full-length HDAC6 (unknown origin) using MAZ1600/MAZ1675 as substrate assessed as release of 7 amino-4-methylcoumarin measured every 5 mins by fluorescence assay. An outline of the steps:
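AMC release after deacetylase/trypsin action read every 5 min. Linear-range first derivative normalised to DMSO controls (<0.5%). IC50 by unconstrained logistic regression.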

Another assay concerns the target Histone deacetylase 2 (Homo sapiens, UniProt Q92769). As to the kind of experiment: Inhibition of recombinant full-length HDAC2 (unknown origin) using MAZ1600/MAZ1675 as substrate assessed as release of 7 amino-4-methylcoumarin measured every 5 mins by fluorescence assay. In outline: as §1

pIC50: −log10 of the molar value.

As usually defined, the pIC50 is the IC50 on a negative log10 scale, so that one unit is a factor of ten.

With `CC(C)[C@@H]1NC(=O)[C@]2(C)CSC(=N2)c2csc(n2)CNC(=O)C[C@@H](/C=C/CCS)NC1=O`, the pIC50 at Histone deacetylase 1 was 8.71; at Histone deacetylase 3, 8.59; in assay [1] it was 6.99; on Histone deacetylase 2 it was 8.47.
